Source: paper PMC11588046 (Proceedings of the National Academy of Sciences of the …, 2024)

Molecular target: T1, ACVR1 (ALK2) (Homo sapiens, UniProt Q04771)
T1 sequence (Q04771 21-509): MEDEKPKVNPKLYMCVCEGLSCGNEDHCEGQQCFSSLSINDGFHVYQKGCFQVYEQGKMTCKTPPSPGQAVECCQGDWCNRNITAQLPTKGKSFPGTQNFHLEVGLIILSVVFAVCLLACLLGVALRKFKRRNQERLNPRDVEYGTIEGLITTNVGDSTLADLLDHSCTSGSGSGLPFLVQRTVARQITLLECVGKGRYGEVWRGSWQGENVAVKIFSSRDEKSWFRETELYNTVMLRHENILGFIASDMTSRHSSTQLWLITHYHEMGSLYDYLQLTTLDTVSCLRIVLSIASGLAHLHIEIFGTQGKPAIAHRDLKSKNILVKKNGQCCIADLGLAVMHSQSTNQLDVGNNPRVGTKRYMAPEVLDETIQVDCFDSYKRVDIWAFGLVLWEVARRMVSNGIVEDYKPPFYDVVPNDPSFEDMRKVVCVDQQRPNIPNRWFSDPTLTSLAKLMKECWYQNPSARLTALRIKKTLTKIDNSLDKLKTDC
Type: binding

CNC(=O)CCCn1c(-c2cc(OC)c(OC)c(OC)c2)nc2ccc(C(=O)NCCCN3CCN(c4ccccc4)CC3)cc21 [CDD-2316]
decrease in ALK2 potency relative to parent compound: more than 50 fold
